Amino acid sequences for entries named in this document (tags omitted).
UniProt P32238, whole entry: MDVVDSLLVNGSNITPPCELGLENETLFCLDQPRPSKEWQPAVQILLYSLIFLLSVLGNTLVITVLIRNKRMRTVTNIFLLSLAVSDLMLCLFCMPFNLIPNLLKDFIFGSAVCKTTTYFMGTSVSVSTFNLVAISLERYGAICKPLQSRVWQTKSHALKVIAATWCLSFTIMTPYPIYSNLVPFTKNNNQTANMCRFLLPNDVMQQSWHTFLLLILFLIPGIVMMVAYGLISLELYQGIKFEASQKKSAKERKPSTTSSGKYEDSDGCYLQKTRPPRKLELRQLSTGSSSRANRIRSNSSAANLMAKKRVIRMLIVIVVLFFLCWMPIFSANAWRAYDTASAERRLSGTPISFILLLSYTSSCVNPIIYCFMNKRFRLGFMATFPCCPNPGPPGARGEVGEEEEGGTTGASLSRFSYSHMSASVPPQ

According to US7855292B2, “Sulfonamide compounds” (Janssen Pharmaceutica NV, priority 2004, dated 2010):

What was measured:
[1] = biological target: T1, CCK-1 receptor (Homo sapiens, UniProt P32238); assay: CCK1 binding assay ([125I]-BH-CCK-8S displacement, CHO-K1 membranes); settings: membranes of CHO-K1 cells stably transfected with the CCK-1 receptor; 20 pM [125I]-BH-CCK-8S; 0.3 μM PD-134,308 present; 60 min at 21±3° C.
T1 construct: expressed in transfected cells; host or cells: CHO-K1
Description: 1. CCK1 Assay Development and Data Generation
CHO-K1 cells that had undergone stable transfection with the CCK-1 receptor were grown in DMEM supplemented with L-glutamine (2 mM), penicillin (50 units/mL) and streptomycin (50 μg/mL). Cells were cultured under continuous G418 selection (2 mM) and were harvested using a rubber cell scraper. CHO-K1 cells were sub-cultured a maximum of ten times before being reseeded from the original stocks.
Membranes were prepared from the stably transfected CHO-K1 cells. […]
All assays were conducted in 96-well plates (GF/B millipore filter plates) using buffer A, with 0.3 μM PD-134,308, for the dilutions. […] Total binding of [^125I]-BH-CCK-8S was determined in the presence of 15 μL of buffer A. Non-specific binding of [^125I]-BH-CCK-8S was determined in the presence of 15 μL of 100 μM 2-naphthalenesulphonyl L-aspartyl-(2-phenethyl)amide (2-NAP: see R. A. Hull et al. Br. J. Pharmacol. 1993, 108:734-740), a CCK-1 receptor selective antagonist that is structurally unrelated to the radioligand [^125I]-BH-CCK-8S. […] Bound radioactivity was determined using a gamma counter (count time=1 min). […]
The pKi values were determined using the equation of Y.-C. […]

[2] = biological target: T2, CCK2 receptor (Homo sapiens, UniProt P32239); assay: CCK2 binding assay ([125I]-BH-CCK-8S displacement, HEKZFP membranes); settings: membranes of doxycycline-induced HEKZFP cells; 20 pM [125I]-BH-CCK-8S; 60 min at 21±3° C.
T2 construct: analyzed for ZFP expression as well as CCK2R induction upon addition of doxycycline to the culture medium; endogenous in cells
T2 sequence (P32239 1-447): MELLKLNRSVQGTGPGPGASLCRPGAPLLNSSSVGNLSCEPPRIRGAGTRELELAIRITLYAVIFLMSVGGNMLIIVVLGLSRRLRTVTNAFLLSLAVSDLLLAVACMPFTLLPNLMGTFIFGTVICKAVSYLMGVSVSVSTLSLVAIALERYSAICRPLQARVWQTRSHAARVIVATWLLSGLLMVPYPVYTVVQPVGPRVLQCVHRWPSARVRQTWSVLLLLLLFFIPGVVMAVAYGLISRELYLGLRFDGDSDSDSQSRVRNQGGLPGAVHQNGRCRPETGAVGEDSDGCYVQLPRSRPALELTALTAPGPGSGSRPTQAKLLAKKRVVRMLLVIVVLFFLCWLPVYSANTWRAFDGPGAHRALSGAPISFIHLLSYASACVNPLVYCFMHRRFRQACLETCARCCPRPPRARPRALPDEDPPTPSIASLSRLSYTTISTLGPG
Description: 2. CCK2 Assay Development and Data Generation
Zinc Finger Proteins (ZFP) specific for the CCK2R gene were identified by Sangamo Biosciences. The ZFP domain was fused with the herpes simplex virus VP16 activation domain, and the fusion protein was subsequently cloned into the pcDNA3 mammalian expression vector (Invitrogen, San Diego, Calif.). […] After 2 weeks of selection in culture medium containing […] Zeocin (Invitrogen), sixty drug-resistant stable clones were isolated and analyzed for ZFP expression as well as CCK2R induction upon addition of doxycycline to the culture medium.
HEKZFP cells were grown in DMEM supplemented with L-glutamine (2 mM), penicillin (50 units/mL) and streptomycin (50 μg/mL) and 10% FBS (v/v).
Membranes were prepared from the HEKZFP cells after induction. […] The thawed pellets were homogenized using a Polytron PT-10 (7×1 s). The homogenates were centrifuged for 5 min at 1500 rpm (600×g), and the resulting pellets were discarded. The supernatants were re-centrifuged in order to collect the receptor-membrane pellets (25 min 15,000 rpm; 39,800×g), which were re-suspended in buffer A.
The assay preparation was incubated for 1 h at 21±3° C., and then the assay was terminated by rapid filtration of the preparation under reduced pressure. The loaded filters were washed three times using undiluted PBS (100 μL), and then 100 μL of scintillation fluid was added to the filter plate. Bound radioactivity was determined using a Topcount (Packard BioScience, Meriden, Conn.) with a count time of 1 min. […] To validate the radioligand concentration and incubation time for the assay, saturation and kinetic binding studies were also conducted (see M. F. Morton, The Pharmacological Characterization of Cholecystokinin Receptors in the Human Gastrointestinal Tract. PhD Thesis, University of London, 2000). […] The assay was then terminated according to the procedure outlined above.
3. Data Analysis for CCK1 and CCK2 Binding Assays
The pKi values were determined using the equation of Y.-C.
[formula] […]

CCK1 pKi [1]	CCK2 pKi [2]	Structure (SMILES)
7.3	5.1	CC(C)(CNC(=O)c1ccc(Cl)cc1NS(=O)(=O)c1cccc2nsnc12)c1ccc(Cl)cc1 [Example 7, 2-(Benzo[1,2,5]thiadiazole-4-sulfonylamino)-4-chloro-N-[2-(4-chloro-phenyl)-2-methyl-propyl]-benzamide]
	7.8	O=C(N[C@@H](Cc1ccc(Cl)c(Cl)c1)C(=O)O)c1ccc(Cl)cc1NS(=O)(=O)c1cccc2nsnc12 [Example 117, (S)-2-[2-(Benzo[1,2,5]thiadiazole-4-sulfonylamino)-4-chloro-benzoylamino]-3-(3,4-dichloro-phenyl)-propionic acid]
	6.3	O=C(N[C@H](Cc1ccc(Cl)c(Cl)c1)C(=O)O)c1ccc(Cl)cc1NS(=O)(=O)c1cccc2nsnc12 [Example 118, (R)-2-[2-(Benzo[1,2,5]thiadiazole-4-sulfonylamino)-4-chloro-benzoylamino]-3-(3,4-dichloro-phenyl)-propionic acid]
6.8		O=C(N[C@@H](Cc1ccc(F)c(Br)c1)C(=O)O)c1cc(Cl)c(Cl)cc1NS(=O)(=O)c1cccc2nsnc12 [Example 157, (S)-2-[2-(Benzo[1,2,5]thiadiazole-4-sulfonylamino)-4,5-dichloro-benzoylamino]-3-(3-bromo-4-fluoro-phenyl)-propionic acid]
